From patent US20240065988A1, “COMBINED USE OF KETAMINE AND RETIGABINE (EZOGABINE) FOR THE TREATMENT OF PSYCHIATRIC DISORDERS” (Yeda Research and Development Co. Ltd., priority 2021, published 2024) come the findings set out here.

The assay concerns single cells from the ventral hippocampus (vHipp). Description: Single-cell RNA sequencing (scRNA-seq) of the ventral hippocampus after ketamine treatment; differential expression per cell type. Particulars: of the 263 DEGs.

`CNC1(c2ccccc2Cl)CCCCC1=O` (racemic) [ketamine, (R,S)-ketamine]: the “DEGs significantly dysregulated in more than 1 cluster” value worked out at 31.
